These results are taken from ChEMBL document CHEMBL2390917, “Synthesis and biological evaluation of 2-(5-methyl-4-phenyl-2-oxopyrrolidin-1-yl)-acetamide stereoisomers as novel positive allosteric modulators of sigma-1 receptor” (Bioorg Med Chem, 2013).

Chains of the proteins cited; added tags and fusions are not shown.
UniProt P32241, whole entry: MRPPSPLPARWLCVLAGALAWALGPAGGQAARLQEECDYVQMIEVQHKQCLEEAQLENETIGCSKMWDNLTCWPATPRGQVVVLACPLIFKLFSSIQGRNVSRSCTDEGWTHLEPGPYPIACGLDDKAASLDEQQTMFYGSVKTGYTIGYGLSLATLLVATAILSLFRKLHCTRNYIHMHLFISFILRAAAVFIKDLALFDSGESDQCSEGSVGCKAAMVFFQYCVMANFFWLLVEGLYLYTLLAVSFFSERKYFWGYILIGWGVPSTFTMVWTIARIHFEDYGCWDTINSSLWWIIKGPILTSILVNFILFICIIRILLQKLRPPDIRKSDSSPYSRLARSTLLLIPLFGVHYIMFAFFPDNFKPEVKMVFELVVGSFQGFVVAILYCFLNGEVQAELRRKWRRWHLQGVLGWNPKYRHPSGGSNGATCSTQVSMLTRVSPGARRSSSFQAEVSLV

For the assay, the target named is Vasoactive intestinal polypeptide receptor 1 (Homo sapiens, UniProt P32241). Kind of assay: Binding affinity to human VPAC1 receptor by radioligand displacement assay.

One may read the IC50 as the midpoint of a concentration-inhibition curve. Read a high IC50 as lower potency. On to `CC[C@H](C)[C@H](NC(=O)CNC(=O)[C@H](CC(=O)O)NC(=O)[C@H](CO)NC(=O)[C@@H](N)Cc1cnc[nH]1)C(=O)N[C@@H](Cc1ccccc1)C(=O)N[C@H](C(=O)N[C@@H](CC(=O)O)C(=O)N[C@@H](CO)C(=O)N[C@@H](Cc1ccc(O)cc1)C(=O)N[C@@H](CO)C(=O)N[C@@H](CCCNC(=N)N)C(=O)N[C@@H](Cc1ccc(O)cc1)C(=O)N[C@@H](CCCNC(=N)N)C(=O)N[C@@H](CCCCN)C(=O)N[C@@H](CCC(N)=O)C(=O)N[C@@H](CCSC)C(=O)N[C@@H](C)C(=O)N[C@H](C(=O)N[C@@H](CCCCN)C(=O)N[C@@H](CCCCN)C(=O)N[C@@H](Cc1ccc(O)cc1)C(=O)N[C@@H](CC(C)C)C(=O)N[C@@H](C)C(=O)N[C@@H](C)C(=O)N[C@H](C(=O)N[C@@H](CC(C)C)C(=O)NCC(=O)N[C@@H](CCCCN)C(=O)N[C@@H](CCCNC(=N)N)C(=O)N[C@@H](Cc1ccc(O)cc1)C(=O)N[C@@H](CCCCN)C(=O)N[C@@H](CCC(N)=O)C(=O)N[C@@H](CCCNC(=N)N)C(=O)N[C@H](C(=O)N[C@@H](CCCCN)C(=O)N[C@@H](CC(N)=O)C(=O)N[C@@H](CCCCN)C(N)=O)C(C)C)C(C)C)C(C)C)[C@@H](C)O`, for which the IC50 amounted to 0.05 nM. This counts as picomolar.
